Numbered stars: 1 amine (or outer) side, 2 acyl side, 3 side chain; on linkers, the order of the positions; unused ones are H or OH. Square brackets hold non-standard residues; d marks the D form. Peptide text beside a SMILES is read from it. X1 = CC(C)([C@@H]1CO1)n1cc([C@@H](O)[C@H](N[*:1])C(=O)[*:2])c2ccccc21; Ala(3R-Me,3-isobutenyl) = CC(C)=C[C@@H](C)[C@H](N)C(=O)O; NMeLeu(5-OH,4R) = CN[C@@H](C[C@@H](C)CO)C(=O)O; Phe(βR-OMe) = CO[C@H](c1ccccc1)[C@H](N)C(=O)O; NMeL = CN[C@@H](CC(C)C)C(=O)O
Test system: luc transcript under the control of the clpC2 promoter
Assay: RT-qPCR of luciferase reporter under clpC2 promoter after CymA
Settings: for Cq value (printed ClpC2) / Cq value RpoB (reference gene): 150 nM CymA
[1] = Msm WT reporter strain, replicate 1
[2] = Msm WT reporter strain, replicate 2
[3] = Msm WT reporter strain, replicate 3
[4] = Msm ΔclpC2 reporter strain, replicate 1
[5] = Msm ΔclpC2 reporter strain, replicate 2
[6] = Msm ΔclpC2 reporter strain, replicate 3

Compound: CO[C@H](c1ccccc1)[C@@H]1NC(=O)[C@H](C)NC(=O)[C@H](C[C@@H](C)CO)N(C)C(=O)[C@H]([C@H](O)c2cn(C(C)(C)[C@@H]3CO3)c3ccccc23)NC(=O)[C@H]([C@H](C)C=C(C)C)NC(=O)[C@H](CC(C)C)N(C)C(=O)[C@H](C(C)C)NC1=O [CymA, cyclomarin A] (cyclo(A[Phe(βR-OMe)]V[NMeL][Ala(3R-Me,3-isobutenyl)][X1][NMeLeu(5-OH,4R)]))
- luciferase expression, WT reporter strain (150 nM CymA vs absence of CymA, Msm WT, normalised to rpoB): significantly higher
- CymA-dependent luciferase expression, ΔclpC2 reporter strain (150 nM CymA vs absence, Msm ΔclpC2): not observed
- Cq value (printed ClpC2) [1]: 20.6929
- Cq value RpoB (reference gene) [1]: 23.3719
- Cq value (printed ClpC2) [2]: 20.7341
- Cq value RpoB (reference gene) [2]: 23.3923
- Cq value (printed ClpC2) [3]: 20.7565
- Cq value RpoB (reference gene) [3]: 23.3048
- Cq value (printed ClpC2) [4]: 20.5263
- Cq value RpoB (reference gene) [4]: 23.28
- Cq value (printed ClpC2) [5]: 20.828
- Cq value RpoB (reference gene) [5]: 23.4048
- Cq value (printed ClpC2) [6]: 19.8021
- Cq value RpoB (reference gene) [6]: 22.3677
